Experimental data from patent US11739099B2 (CURIA IP HOLDINGS, LLC, priority 2014, dated 2023).
Read-outs that look alike come from different tables or passages of the source.

Settings: room temperature, double polyethylene bags, time=0 and after 3 and 6 months

## Rifaximin [Rifaximin α/β polymorphic mixture 88/12]
  Stability of the polymorphic mixture (α/β ratio by DRX powder): confirmed
Listed as α/β polymorphic mixture
  Stability of the polymorphic mixture (α/β ratio by DRX powder): stable
